## Antibody variant affinities, Ab-14 light chain, assay B

The measurements come from Li et al. 2023 (doi:10.1038/s41467-023-39022-2) through the FLAb antibody collection.

Antigen: PDVDLGDISGINAS, a 14-residue peptide of the SARS-CoV-2 spike HR2 region.

Each scFv is VH, a 15-residue (Gly4Ser)3 linker, VL, as in the parent Ab-14, and differs from it in the CDRs of the light chain only.
VH: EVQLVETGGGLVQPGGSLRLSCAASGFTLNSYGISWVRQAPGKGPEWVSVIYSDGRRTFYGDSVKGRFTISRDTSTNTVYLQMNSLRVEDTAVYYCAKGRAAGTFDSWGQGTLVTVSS
VL: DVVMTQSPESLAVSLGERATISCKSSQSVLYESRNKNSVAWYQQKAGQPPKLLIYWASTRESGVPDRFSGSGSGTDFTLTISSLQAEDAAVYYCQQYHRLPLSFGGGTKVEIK

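These sequences belong to a second round, designed from the earlier measurements on random variants of the parent. Group labels follow the data file (Ctrl: baseline library sampled from a position-specific scoring matrix, with some repeated check sequences; En: ensemble of fine-tuned language models; GP: Gaussian process model; HC: hill climbing; Gen: genetic algorithm; Gibbs: Gibbs sampling; a sequence that several methods proposed may carry one label only). The assay is AlphaSeq: two haploid yeast populations carry antibody and antigen on their surface. Mating (16 h, 30 °C) was followed by selection of diploids and sequencing of their barcodes. Read counts were normalised to the haploid input and turned into Kd by a linear fit to BCL2-family pairs of known affinity, for each replicate. There are six technical replicates.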

Each variant is given by its three light chain CDRs, as the data file delimits them; those of the parent are KSSQSVLYESRNKNSVA, WASTRES, QQYHRLPLS.
Scale: log10 of Kd in nM, estimated from mating counts; low values are strong binders.
Replicates are averaged; those with no signal do not enter the mean.
A pair that was not seen in any replicate is written "no signal"; this usually means weak binding, but a binder can also be missed.
In the paper, a design with two or fewer of six values counts as a poor binder.
The range of this assay differs from that of the first round, and the authors advise against merging the two.
Background: pairings of all light chain designs with three empty control strains gave a value in 4% of cases (median 2.64, 5th percentile 1.59). Values in that range, when seen in few replicates, are hard to tell from nonspecific mating.
Of ten entries with the parent sequence, four were seen in most replicates (averages 0.34 to 2.37), three in one and three in none, so single entries are noisy.

| CDR-L1 | CDR-L2 | CDR-L3 | group | mean log10 Kd (nM) | detected |
|---|---|---|---|---|---|
| KLYQSVLYESRNKNSVA | HASLRED | QQYHRLPLS | GP_HC | 0.73 | 6 of 6 |
| MISQVMNMLTREGNNVA | DLAEREK | QQYFRLPLS | En_Gen | 2.85 | 2 of 6 |
| KSSQSVLYESRNKNNVA | DASTRES | QQYHRLPLS | GP_Gen | 0.07 | 6 of 6 |
| KLSSITGHMSMIKNNVA | EMETREN | QQYNRLPLA | En_Gen | 0.54 | 6 of 6 |
| KMMLSLGESKQSERNVA | NMRVSVA | QQYDHLPLT | En_Gibbs | 1.23 | 6 of 6 |
| KVMQSVPYESRNKNSVA | EASQREL | QQYHRLPLS | GP_Gibbs | 0.19 | 6 of 6 |
| KLSQLFYKESKNKNNVA | EMTTRGK | QQYDRLPLS | En_HC | 0.35 | 6 of 6 |
| TLYQSMGYLSHNKNSIA | DMSRREN | QQYHRLPLS | En_HC | 0.55 | 6 of 6 |
| KSSQSVLYESRNKNSVA | NASTRES | QQYHRLPIW | Ctrl | 0.78 | 6 of 6 |
| SFSQTVMYESTMRNNVA | QTSTRES | QQYDRLPLS | En_HC | 0.69 | 6 of 6 |
| IISQSMLYESATHNSIA | QTSTREE | QQYNHLPLS | En_HC | 0.30 | 6 of 6 |
| KLPQSDLYEGRNSNSVA | NASTRFD | QQYHRLPLS | GP_Gibbs | 0.11 | 6 of 6 |
| KFSQSVLGESRNKNSVA | WASTRES | QQYHRLPLS | Ctrl | 0.63 | 6 of 6 |
| KSYQSVLYESRNKNSVA | WASTRES | QTYHRLPLS | Ctrl | 0.96 | 6 of 6 |
| MLGMTVMQGMVSRNNVA | QEETRAD | QQYHHLPLS | En_HC | 0.77 | 6 of 6 |
| TISQSFLMENQFKNSVA | QASLRES | QCYDRLPLS | En_HC | 1.28 | 6 of 6 |
| KIAQSMNMTSHHINSVA | QSETREE | QQYNHLPLS | En_HC | 1.36 | 6 of 6 |
| HIDQFTSYDNGEDRAIA | DVTIRDY | QQYARLPLL | En_Gibbs | 0.88 | 6 of 6 |
| KSSQSVLGEQRNKNSVA | EASTRES | QQYHRLPLS | GP_HC | 1.09 | 6 of 6 |
| KLQSLWLYESRNKNNVA | SASTRYS | QQYHRLPLS | GP_Gibbs | -0.01 | 6 of 6 |
| KSSQSVLYESRNKNSVA | AASTRED | QQYHRLPLS | Ctrl | 0.67 | 6 of 6 |
| KLSMITGHMSVSKNNVA | EMETREK | QQYERLPLS | En_Gen | 0.06 | 6 of 6 |

Second part, the sequence after the result:

| mean log10 Kd (nM) | detected | CDR-L1 | CDR-L2 | CDR-L3 | group |
|---|---|---|---|---|---|
| 0.45 | 6 of 6 | KISQMVKVGSTHSNSIA | EEETRAK | QQYHRLPLA | En_Gen |
| 2.27 | 6 of 6 | MIHESYGNMVMKKNSIA | DNSTRGE | QQYDRLPLS | En_Gen |
| -0.40 | 6 of 6 | SLMQSVLYESRNKNSVA | NASLRED | QQYHRLPLS | GP_HC |
| 0.86 | 6 of 6 | RVTNEFFKEMERKNSVA | HTDQRCM | QQYFRLPLI | En_Gibbs |
| -0.07 | 6 of 6 | KLQQSVEYESRNKNSVA | NASTRCS | QQYHRLPLS | GP_Gen |
| 1.04 | 6 of 6 | HVSMLTLGGLKQRNSVA | QMTTREN | QQYDRLPLA | En_Gen |
| 0.51 | 6 of 6 | KYSQSVLYESENPNSVA | SASTRES | QQYHRLPLS | Ctrl |
| 1.53 | 6 of 6 | KIERATKGDEYFQESIA | KGDIREK | QQYAQLPLT | En_Gibbs |
| 0.04 | 6 of 6 | KVSHSYLLESRNKNSVA | EASTRES | QQYHRLPLS | GP_HC |
| -0.13 | 6 of 6 | HSSPSWLYESRNKNNVA | NASTRES | QQYHRLPLS | GP_HC |
| 1.55 | 6 of 6 | KSSQGVLYESMNKNSVA | WASTRES | QQYHRLPLS | Ctrl |
| no signal | 0 of 6 | KSSQWVLYESRNKNAVA | WASTRES | QQYHRLPLS | Ctrl |
| -0.07 | 6 of 6 | KLMQSVLYESRNKNSVA | DASQRES | QQYHRLPLS | GP_Gen |
| 2.38 | 3 of 6 | KSSQSVLYDSRNKNSVA | WASTRES | QQYHRLPLF | Ctrl |
| 1.01 | 6 of 6 | MISDLTYLGLRNVNSVA | DLSMRGN | QQYDRLPLS | En_HC |
| 0.53 | 6 of 6 | MLVGPDEMEEHNWQSVA | SAEALAM | QQYFRLPLS | En_Gibbs |
| -0.71 | 6 of 6 | KGSQSWLYESRNKNSVA | GASTREN | QQYHRLPLS | GP_HC |
| 0.70 | 6 of 6 | KSSQSVLETSRNKNSVA | GAVTRES | QQYHRLPLS | Ctrl |
| 0.55 | 6 of 6 | KLSQSFLMESMNKNSVA | HASQRIW | QQYHRLPLS | GP_Gibbs |
| 0.31 | 6 of 6 | KCLQSVLYESRNKNSVA | HASTRED | QQYHQLPLS | GP_HC |
| 1.90 | 5 of 6 | IVSQLMLWGHLAKNSIA | EAVTRLN | QQYDRLPLF | En_Gen |
| -0.39 | 6 of 6 | QSSQSELYESRNKNSVA | GASTRES | QQYHRLPLS | GP_HC |
| 2.10 | 6 of 6 | KLIQSVAMSSRQKDSIA | DNSTREY | QQYHRLPLS | En_HC |